# Laboratory results reported in PubChem BioAssay (Tox21).
# Amino acid sequences for entries named in this document (tags omitted).
# UniProt P14416, whole entry, looked up: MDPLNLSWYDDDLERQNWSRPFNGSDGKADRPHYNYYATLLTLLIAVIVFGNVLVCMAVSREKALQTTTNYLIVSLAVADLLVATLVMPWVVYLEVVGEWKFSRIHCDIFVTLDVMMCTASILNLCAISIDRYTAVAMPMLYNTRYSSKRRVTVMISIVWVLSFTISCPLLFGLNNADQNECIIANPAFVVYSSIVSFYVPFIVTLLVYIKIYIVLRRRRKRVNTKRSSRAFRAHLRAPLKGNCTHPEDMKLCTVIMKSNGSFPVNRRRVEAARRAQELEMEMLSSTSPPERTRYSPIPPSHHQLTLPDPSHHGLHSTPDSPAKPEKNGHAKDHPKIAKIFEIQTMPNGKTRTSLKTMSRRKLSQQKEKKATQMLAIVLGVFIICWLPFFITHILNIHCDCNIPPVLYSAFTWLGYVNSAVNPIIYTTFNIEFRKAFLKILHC
# The entries are a selection whose mix differs from that of the whole data set. Inconclusive results are not listed. Active and inactive are the calls of the source. Calls come from the whole dose curve.
# Target: D(2) dopamine receptor (Homo sapiens) (UniProt P14416)
# Assay: Dopamine D2 receptor (DRD2) small molecule agonists, cell-based qHTS assay (AID 1963594); note: nearly all actives have a fitted effect of over 35% in size
# Details: HEK293-DRD2 cAMP HTRF, agonist mode, 30 min; series mostly up to 92.4 µM; activation: at the top concentration
# From the text: National Center for Advancing Translational Sciences [NCATS]
# Division of Preclinical Innovation [DPI]
# U.S. Environmental Protection Agency [EPA]
# National Institutes of Environmental Health Sciences [NIEHS]
# National Toxicology Program [NTP]
# U.S. Food and Drug Administration [FDA]
# DRD2 is the D2 subtype of the dopamine receptor, which is coupled to Gi subtype of G protein-coupled receptor. This G protein-coupled receptor inhibits adenylyl cyclase activity. The DRD2-HEK293 cell line stably expressing D2 dopamine receptor can be used for screening agonists and antagonists of interactions between D2 and its ligands. The Hek293-DRD2 cAMP assay is based on HTRF technology. It measures changes of cAMP accumulation in response to Gi coupled GPCR activation or inhibition.
# Tox21 Assay Protocol Summary:
# DRD2-Hek293 cells were dispensed at 600 cells/3uL/well in 1536-well white plates using a Multidrop Dispenser. After the assay plates were incubated at a 37 C/5% CO2 incubator for 24 h, 1 uL of Ro20-1724 at final concentration of 0.1 mM was transferred to the assay plate by a Flying Reagent Dispenser. Following Ro20-1724 addition, 23 nL of compound dissolved in DMSO, positive controls or DMSO only was added to the assay plates via Wako pintool station. The assay plates were incubated at room temperature for 10 min. Next, 1 uL of NKH477 at 200nM was added into the plates. After the assay plates were incubated at room temperature for an additional 30 min, 2.5 ul/well of cAMP-d2 and 2.5 ul/well of anti-cAMP-cryptate were added respectively into the assay plates using a Flying Reagent Dispenser. The plates were incubated at room temperature for 1 h. The fluorescence intensity in the plates was measured at 340 nm excitation and 665 & 620 nm emission by an Envision plate reader.
# % is set by controls: 0 for no effect and ±100 for the full control effect; potency is the fitted concentration of half-maximal effect.
Compound,activation,Potency
O=[N+]([O-])c1ccc(S(=O)(=O)O)c([N+](=O)[O-])c1,inactive: 1.11%,
CCCCO[P+](=O)OCCCC,,inactive
N#CSc1ccc([N+](=O)[O-])cc1[N+](=O)[O-],inactive: 5.9%,
NC(=O)Nc1ccc([As](=O)(O)O)cc1,,inactive
CCNC(C)Cc1ccc2c(c1)OCO2 (stereo not drawn),inactive: -5.01%,
O=C(Cl)Oc1ccccc1,inactive: 0.116%,
CCC(C)(OOC(C)(C)C)OOC(C)(C)C,inactive: -2.93% [at 19 µM],
O=[P+](Oc1ccccc1)Oc1ccccc1,inactive: 1.39%,
CC(C)OP(=S)(OC(C)C)SCCNS(=O)(=O)c1ccccc1,inactive: -20.4%,
CN(C(=O)Cc1ccccc1)[C@H]1CC[C@@]2(CCCO2)C[C@@H]1N1CCCC1,inactive: -4.33% [at 42.5 µM],
CCCCC(CC)CO[P+](=O)OCC(CC)CCCC (stereo not drawn),inactive: -0.411%,
O=[N+]([O-])c1ccc([N+](=O)[O-])cc1,inactive: -5.39%,
CC(C)CCCCCCCOP(OCCCCCCCC(C)C)Oc1ccccc1,inactive: -1.15%,
O=[p+]1oc2ccccc2c2ccccc21 (stereo not drawn),inactive: -8.43%,
CCOP(=S)(CC)Sc1ccccc1 (stereo not drawn),inactive: 4.06%,
CN(C(=O)Cc1ccc(Cl)c(Cl)c1)[C@H]1CC[C@@]2(CCCO2)C[C@@H]1N1CCCC1,inactive: 20% [at 42.5 µM],
COC(=O)Cl,inactive: -2.29%,
O=C(Cl)OCCOC(=O)Cl,inactive: -4.79%,
ClP(Cl)c1ccccc1,inactive: 13.3%,
O=P(Cl)(Cl)c1ccccc1,inactive: -0.466%,
O=P(Cl)(Oc1ccccc1)Oc1ccccc1,inactive: -12.3%,
CCCCCCCCCCCCCC[P+](CCCCCC)(CCCCCC)CCCCCC,inactive: -6.09%,
CN(N=O)C(=N)N[N+](=O)[O-],inactive: 0.468%,
CCOC(=O)Cl,inactive: -1.85%,
Cc1cc([N+](=O)[O-])c(O)c([N+](=O)[O-])c1,inactive: 0.441%,
CCCCOP(OCCCC)OCCCC,inactive: 0.3%,
COP(=S)(Cl)OC,inactive: 0.589%,
O=[As]c1ccccc1 (stereo not drawn),,active: 37.1 µM
